Here are results for two substances from patent publication EP3878460A1, “GREEN TEA EXTRACT HAVING MODIFIED CONSTITUENT CONTENT AND COMPOSITION COMPRISING SAME” (priority 2018, dated 2020).

For the data set, the system named is hepatocytes (HepG2 cells). In words: Hepacytotoxicity, cell viability by MTS assay. To be noted: HepG2 cells, 10, 50, 100 or 200 µM, 24 hours; calculated from cell viability. As for the experimental part: In order to investigate the hepatotoxicity of the high-temperature-processed green tea extract obtained in Example 1 (sample 2), hepatocytes (HepG2 cells) acquired from Korean Cell Line Bank were seeded onto a 96-well plate (Falcon) with 1×10^5 cells per well and cultured for 24 hours in a 5% CO2 incubator at 37 °C. Then, after treating with the sample 1 or sample 2 at 5, 10, 25, 50 or 100 µg/mL and culturing further for 24 hours, the medium was removed and cell viability was investigated using a CellTiter 96 AQueous One Solution cell proliferation assay kit (MTS, Promega Co. Madison, WI, USA). After treating the cells with 20 µL of a CellTiter 96 AQueous One Solution cell proliferation assay kit (MTS, Promega Co. Madison, WI, USA) solution added to 100 µL of RPMI1640 (Lonza), the number of live cells was quantified by measuring absorbance at 490 nm. The cell number or cell viability (%) was calculated by the following equation. Cell viability (%) = (absorbanceofsample-treatedgroup−absorbanceofreagentalone)/(absorbanceofnon-treatedgroup−absorbanceofreagentalone) × 100 [formula]
After treating the cells with 20 µL of a CellTiter 96 AQueous One Solution cell proliferation assay kit (MTS, Promega Co. Madison, WI, USA) solution added to 100 µL of RPMI1640 (Lonza), the number of live cells was quantified by measuring absorbance at 490 nm. […]

Turning to catechin gallate [CG], the LD50 was 260.8 µM.

In the case of catechin, the LD50 is reported as 569.0 µM.
